Test results reported in patent publication US20090076075A1, “QUINOLINE DERIVATIVES” (priority 2006, published 2009).

Protein sequences, listed by entry. Tags and fused reporters are not part of them. Residues count along the entry.
UniProt P09619, 33-1106 limits assumed: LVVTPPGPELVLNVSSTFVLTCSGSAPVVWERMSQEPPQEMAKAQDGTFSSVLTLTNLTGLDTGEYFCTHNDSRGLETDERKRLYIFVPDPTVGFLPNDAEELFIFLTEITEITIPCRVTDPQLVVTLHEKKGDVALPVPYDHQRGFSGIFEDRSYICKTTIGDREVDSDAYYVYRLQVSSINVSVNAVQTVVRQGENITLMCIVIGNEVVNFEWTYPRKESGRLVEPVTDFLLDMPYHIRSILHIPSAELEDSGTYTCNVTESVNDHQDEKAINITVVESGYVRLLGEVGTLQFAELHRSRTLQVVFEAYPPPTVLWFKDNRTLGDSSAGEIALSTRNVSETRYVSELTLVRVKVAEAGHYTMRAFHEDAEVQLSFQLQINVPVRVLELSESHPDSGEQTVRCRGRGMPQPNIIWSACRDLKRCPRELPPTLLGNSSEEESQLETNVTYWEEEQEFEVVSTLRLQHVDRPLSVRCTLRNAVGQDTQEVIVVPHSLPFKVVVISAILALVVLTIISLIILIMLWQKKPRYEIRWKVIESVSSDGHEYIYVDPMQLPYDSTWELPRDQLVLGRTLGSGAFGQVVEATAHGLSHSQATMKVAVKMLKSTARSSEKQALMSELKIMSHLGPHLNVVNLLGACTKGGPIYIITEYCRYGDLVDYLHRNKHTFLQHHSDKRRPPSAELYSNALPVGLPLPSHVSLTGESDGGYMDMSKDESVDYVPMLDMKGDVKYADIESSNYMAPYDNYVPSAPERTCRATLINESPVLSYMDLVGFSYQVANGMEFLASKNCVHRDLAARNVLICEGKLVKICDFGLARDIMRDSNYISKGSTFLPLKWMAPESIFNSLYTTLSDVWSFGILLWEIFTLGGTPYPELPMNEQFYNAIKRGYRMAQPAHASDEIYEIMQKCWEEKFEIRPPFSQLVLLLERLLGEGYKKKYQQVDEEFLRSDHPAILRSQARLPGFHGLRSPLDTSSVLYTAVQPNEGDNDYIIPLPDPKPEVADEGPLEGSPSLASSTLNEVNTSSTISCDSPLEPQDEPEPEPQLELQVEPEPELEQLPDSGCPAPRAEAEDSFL

Target: PDGFRβ (Homo sapiens, UniProt P09619)
Assay: In vitro phospho-Tyr751 PDGFRβ ELISA assay (Test (b))
Type: cell-based
Settings: read-out: IC50 versus phospho-Tyr751 formation in PDGFRβ, MG63 osteosarcoma cells stimulated with PDGFBB

CCc1cc(NC(=O)Cc2ccc(Oc3ccnc4cc(OC)c(OC)cc34)cn2)n[nH]1
IC50: 1 µM
